An excerpt weighted towards active compounds, which were near 0.67% of everything screened.
gsp ag – agonists of gsp mutant (McCune-Albright syndrome); Potency, µM (series often up to 76.9 µM), for the others: at the highest dose activation (cAMP increase), actives largely listed as activators; AID 624287; 340,000 compounds, 0.13% hits; gsp mutant cells, cAMP HTRF, 30 min; active = well fitted activation curve with a large enough effect; inconclusive = small, poorly fitted or top-dose-only effect, or another doubt; inactive = no such curve, though single readings can be large or run the other way; cell line not stated here;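 note: phosphodiesterase inhibitor Ro 20-1724 added with compounds to block cAMP breakdown; nearly all actives have a fitted effect of over 60% in size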
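Cells stably selected in G418 were plated at 2000/well, grown 16-24 hr, then given compounds in DMSO with the PDE inhibitor […] (300 uM solution added) for 30 min at 37C; cAMP was read by HTRF.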
S-ASM inh – human S-ASM enzyme inhibition | P17405 | placental ASM, HMU-PC fluorogenic substrate, 60 min | Potency, µM (titrated, usually from 57.5 µM), for inactives: at the highest dose activity change, negative = inhibition, actives largely listed as inhibitors | 340,000 compounds, 0.006% hits | AID 504937; active = well fitted inhibition curve with a large enough effect; inconclusive = small, poorly fitted or top-dose-only effect; inactive = no such curve, though single readings can be large or run the other way
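Steps: dispense placental human ASM, pin compound, wait 10 min at room temperature, add HMU-PC0 substrate at 9 uM final, incubate 60 min at 37 °C, add stop solution raising pH to 10, read fluorescence.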
gsp antagonist – gsp mutant antagonism; gsp-mutant cells, cAMP HTRF, 30 min; Potency, µM (titrated, usually from 76.9 µM), inactives show top-dose activity change, negative = inhibition, most hits filed as inhibitors; 340,000 compounds, 0.4% hits; AID 624288; calls by dose curve; cell line not stated here;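 note: intracellular cAMP measured with PDE inhibitor Ro 20-1724 present during compound exposure; % is set by controls: 0 for no effect and ±100 for the full control effect; nearly all actives have a fitted effect of over 65% in size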
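Measurement of cellular cAMP by homogeneous time-resolved fluorescence following a 30 min compound exposure at 37C. The PDE inhibitor […] was present throughout; the assay buffer was DPBS with 0.05% BSA and 0.005% Tween 20.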
Rango complex inh – Rango-importin beta binding inhibition. Potency, µM (titrated, usually from 92.2 µM), for inactives: at the top dose inhibition of complex formation. 340,000 compounds, 0.031% hits. Q14974. AID 540263. Rango CFP/YFP FRET sensor + importin beta, 45 min;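 note: 0% = DMSO wells and 100% = buffer wells lacking importin beta; nearly all actives have a fitted effect of over 15% in size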
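Inhibition scored from the CFP 486 nm/YFP 530 nm FRET ratio 45 min after adding 0.125 microM importin beta to 50 nM Rango biosensor preincubated 5 min with compound (room temperature, PBS with DTT, Tween-20, BSA). No-importin wells as positive control.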
Rango release inh – prevents RanGTP from dissociating the Rango-importin beta complex | O95149+P62826 | Biochemical FRET Rango-importin beta, RanGTP-induced dissociation | Potency, µM (top dose mostly 46.1 µM), inactives show at the top dose activity change, negative = inhibition | 340,000 compounds, 0.071% hits | AID 540253; note: % of control where 0% means no effect; nearly all actives have a fitted effect of over 45% in size
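FRET read at 45 min, room temperature: inhibitors block the CFP/YFP signal rise when RanGTP (0.6 uM Ran, 2 mM GTP, 0.2 uM RCC1) frees Rango (0.1 uM) from importin beta (0.25 uM). Pre-read after 5 min compound exposure flags interference.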
Starred values were filed as active, the others as inactive; ? = inconclusive; . = no result given; ! = a repeat was not active; [ ] = another dose, or the depositor's remark. Unless noted, calls come from the whole dose curve. Potency is the fitted concentration of half-maximal effect.

SMILES	gsp ag	S-ASM inh	gsp antagonist	Rango complex inh	Rango release inh
CC(C)(C)OC(=O)N1CCCC(C(=O)Nc2ccc(C(=O)N3CCOCC3)cc2)C1 (stereo not drawn)	-2%	1%	8%	-4%	-12%
CCN(CC(=O)Nc1c(F)cccc1F)C(=O)c1cnccn1	3%	2%	8%	0%	-6%
O=C(O)c1cc2c([nH]c1=O)CCCC2	5%	1%	-3%	-2%	1%
C=CCSC(=C(C#N)C#N)c1cc2c([nH]1)CCCC2	17%	-13%	-17%	?	16µM*
CCCn1c(SCC(=O)Nc2ccc(NC(C)=O)cc2)nc2c1c(=O)n(C)c(=O)n2C	18µM*	-2%	4%	1%	-1%
CCC(=O)Nc1ccc(NC(=O)CSc2nc3c(c(=O)n(C)c(=O)n3C)n2CC)cc1	47%[15.4 µM]	18%	22%	-2%	-7%
COc1ccc2c(c1)[nH]c1c(N3CCSCC3)ncnc12	-9%[15.4 µM]	-3%	28µM*	1%	1%
COc1ccc2[nH]c3c(N4CC(C)OC(C)C4)ncnc3c2c1 (stereo not drawn)	22%	140%	4%	2%	-14%
COc1cccc(N2CCN(c3ncnc4c3[nH]c3ccc(F)cc34)CC2C)c1 (stereo not drawn)	-17%	-26%	3.5µM*	-3%	-5%
COc1ccc2c(c1)[nH]c1c(N3CCN(Cc4ccc5c(c4)OCO5)CC3)ncnc12	-68%	-4%	40µM*	0%	6%
Cc1cc(OCC(=O)NCC(c2cccs2)N2CCOCC2)ccc1C(C)C (stereo not drawn)	-8%[15.4 µM]	1%	-7%	1%	7%
Cc1ccc(C(C)C)c(OCC(=O)NCC(c2cccs2)N2CCOCC2)c1 (stereo not drawn)	-23%[15.4 µM]	0%	35µM*	0%	-23%
COc1cc2c(cc1OC)C(COc1ccc([N+](=O)[O-])cc1)NCC2 (stereo not drawn)	?	-1%	?	2%	1%
CCN(CC)S(=O)(=O)c1ccc(NC(=O)CSc2cccc[n+]2[O-])cc1	5%	3%	5%	-4%	-8%
CCN(CC)S(=O)(=O)c1ccc(Cl)c(NC(=O)CSc2cccc[n+]2[O-])c1	8.9µM*	0%	12%	0%	-7%
N#C/C(=N\Nc1cccc(C(F)(F)F)c1)C(=O)c1csc(-c2cccnc2)n1	-11%	-28%	25µM*	0%	0%
COc1cccc(CSc2nnc(-c3ccco3)n2C)c1	-32%	3%	2%	1%	-9%
CCCOc1ccccc1NC(=O)c1c(-c2ccccc2)noc1C	-23%	-9%	?	58µM*	3%
Cc1ccc(C2/C=C\CC(NC(=O)OCC3c4ccccc4-c4ccccc43)CC(=O)N2Cc2ccccc2)cc1 (stereo not drawn)	.	?	1%	0%	-4%
CC(=O)c1c(C)[nH]c(C(=O)CN2CCN(S(=O)(=O)c3ccc(C(C)C)cc3)CC2)c1C	-14%	-5%	35µM*	-4%	3%
COc1ccc(S(=O)(=O)N2CCN(CC(=O)c3[nH]c(C)c(C(C)=O)c3C)CC2)cc1OC	2%	1%	?	5%	8%
O=C(NCCOC(=O)c1ccc(Cl)c(S(=O)(=O)N2CCCCC2)c1)c1ccncc1	15%	-2%	40µM*	-3%	-11%
CC1CCc2c(sc3ncnc(SCC(=O)N(C)C4CCS(=O)(=O)C4)c23)C1 (stereo not drawn)	?	2%	-11%	5%	-7%
Cc1nn(-c2ccccc2)c(Cl)c1C(=O)N1CCN(c2ncnc3c2cnn3-c2ccccc2)CC1	22%	-10%	13µM*	1%	15%

Part of the list above, in markdown.
| Compound | gsp ag | S-ASM inh | gsp antagonist | Rango complex inh | Rango release inh |
| --- | --- | --- | --- | --- | --- |
| CCN(CC)S(=O)(=O)c1ccc(Cl)c(NC(=O)CSc2cccc[n+]2[O-])c1 | 8.9µM* | 0% | 12% | 0% | -7% |
| N#C/C(=N\Nc1cccc(C(F)(F)F)c1)C(=O)c1csc(-c2cccnc2)n1 | -11% | -28% | 25µM* | 0% | 0% |
| COc1cccc(CSc2nnc(-c3ccco3)n2C)c1 | -32% | 3% | 2% | 1% | -9% |
| CCCOc1ccccc1NC(=O)c1c(-c2ccccc2)noc1C | -23% | -9% | ? | 58µM* | 3% |
| Cc1ccc(C2/C=C\CC(NC(=O)OCC3c4ccccc4-c4ccccc43)CC(=O)N2Cc2ccccc2)cc1 (stereo not drawn) | . | ? | 1% | 0% | -4% |

Continuation:
SMILES	gsp ag	S-ASM inh	gsp antagonist	Rango complex inh	Rango release inh
O=C(c1ccccc1)N1CCN(c2ncnc3c2cnn3-c2ccccc2)CC1	-15%	-9%	?	0%	0%
Cc1nnc(SCCOc2ccccc2)s1	-14%	0%	4%	-3%	0%
Cc1nnc(-c2cccc(Br)c2)c2cn(-c3ccc(Br)cc3)nc12	4%	-3%	?	0%	-8%
COc1ccc(-n2cc3c(-c4cccc(Br)c4)nnc(C)c3n2)cc1	27%	-25%	40µM*	0%	-12%
CC1CCCN(CCCCOc2cccc(Br)c2)C1 (stereo not drawn)	-22%	-3%	6%	3%	25%
NC(=O)CC(NC(=O)Cc1cccc2ccccc12)c1ccc(N2CCCCCCC2)c([N+](=O)[O-])c1 (stereo not drawn)	-5%	-18%	50µM*	0%	-7%
COc1ccc(-c2[nH]ncc2Oc2ccccc2OC)c(O)c1	-12%	-3%	13µM*	0%	3%
Cc1sc(N2CCN(S(=O)(=O)c3ccc4c(c3)NC(=O)CO4)CC2)nc1-c1ccccc1	-41%	-4%	-3%	0%	-8%
COc1cccc(C(=O)Nc2ccc(C(F)(F)F)n(C)c2=O)c1	11%	3%	1%	0%	8%
CCOc1ccc(C(=O)Nc2ccc(C(F)(F)F)n(C)c2=O)cc1	28µM*	3%	3%	0%	-17%
COc1ccc(-c2nc(O)c3cnccn23)cc1	-21%	16%	?	1%	-1%
CCOC(=O)C1=C(C)NC(C)=C(C(=O)OCC)C1C(=O)OCC(=O)N1c2ccccc2CC1C (stereo not drawn)	-18%	39%	11µM*!	?	-16%
CCOC(=O)c1c(C)[nH]c(C(=O)OCC(=O)N2c3ccccc3CC2C)c1C (stereo not drawn)	21%	-13%	-19%	3%	-4%
COC(=O)c1cccc(Oc2nc3c(c(=O)n(C)c(=O)n3C)n2C(C)C)c1	?	-1%	13%	0%	8%
COC(=O)c1cccc(Oc2nc3c(c(=O)n(C)c(=O)n3C)n2Cc2ccc(C)cc2)c1	7.9µM*	-15%	10%	0%	17%
Cc1ccnc(NS(=O)(=O)c2ccc(N3C(=O)c4c(Cl)c(Cl)c(Cl)c(Cl)c4C3=O)cc2)n1	-7%[15.4 µM]	-3%	-14%	0%	-15%
Cc1ccnc(NS(=O)(=O)c2ccc(N3C(=O)c4ccccc4C3=O)cc2)n1	25µM*	1%	9%	0%	0%
Cc1noc(NS(=O)(=O)c2ccc(N3C(=O)c4ccccc4C3=O)cc2)c1C	2.2µM*	1%	43%	-1%	2%
Cc1ccc(Nc2nc(N/N=C/c3c[nH]c4ccccc34)nc(N3CCOCC3)n2)cc1	1%[15.4 µM]	.	40µM*	3%	27%
C(=N\Nc1nc(Nc2ccccc2)nc(N2CCOCC2)n1)/c1c[nH]c2ccccc12	1%	-28%	-24%	-5%	-25%
CNC(=O)c1nc(C)c(C2(C)CC(c3cccc([N+](=O)[O-])c3)=NO2)s1 (stereo not drawn)	18%	-1%	-3%	-1%	3%

From PubChem BioAssay
